Reference: patent publication US8945853B2, “Detection of intracellular binding events by measuring protein abundance” (DiscoveRx Corporation, priority 2012, dated 2015)

Chains of the proteins cited; added tags and fusions are not shown.
UniProt P10415, whole entry: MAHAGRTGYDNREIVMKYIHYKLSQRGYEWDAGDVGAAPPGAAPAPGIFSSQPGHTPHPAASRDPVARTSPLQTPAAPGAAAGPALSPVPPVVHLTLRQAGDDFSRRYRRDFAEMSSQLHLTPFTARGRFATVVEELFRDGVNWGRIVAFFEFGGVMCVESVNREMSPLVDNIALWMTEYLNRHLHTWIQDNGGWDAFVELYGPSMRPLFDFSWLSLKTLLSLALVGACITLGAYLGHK

How the values were obtained:
Format in all cases: cell-based
Conditions in all cases: loss of signal
[1] = target: BCL-2 / PL-Bak (Homo sapiens, UniProt P10415); assay: BCL-2 co-expressed with PL-Bak in U2OS cells, disruption by small molecules (FIG. 7C)
Experimental: (§1) Interaction of BCL-2 with a peptide test compound (Bim, Bak, and Bax) was studied.
(§2) The native BCL-2 was co-expressed with each of the ProLabel fusions in U2OS cells. Small molecules that are reported to disrupt BCL-2 interactions were then applied to the cells and incubated overnight.
(§3) Cells were transduced with the indicated target PL-fusion and the untagged protein Bcl-2. The cells were treated with the indicated compounds overnight and the remaining target-PL fusion was detected by lysing the cells in the presence of EA and substrate. Luminescence was measured 30 minutes later.

[2] = target: BCL-2 / PL-Bim (Homo sapiens, UniProt P10415); assay: BCL-2 co-expressed with PL-Bim in U2OS cells, disruption by small molecules (FIG. 7B)
Experimental: as §1, §2, §3

[3] = target: BCL-2 / PL-Bax (Homo sapiens, UniProt P10415); assay: BCL-2 co-expressed with PL-Bax in U2OS cells, disruption by small molecules (FIG. 7A)
Experimental: as §1, §2, §3

EC50 [1]: 41.9 µM
EC50 [2]: 6.01 nM
EC50 [3]: 4.68 nM
SMILES: CC1(C)CCC(c2ccc(Cl)cc2)=C(CN2CCN(c3ccc(C(=O)NS(=O)(=O)c4ccc(N[C@H](CCN5CCOCC5)CSc5ccccc5)c(S(=O)(=O)C(F)(F)F)c4)cc3)CC2)C1 [ABT-263]
